PubChem BioAssay AID1468 (National Center for Advancing Translational Sciences (NCATS), 2008)
The list shows a part of the results, in another mix than the full data. Records with an inconclusive call do not appear. Active and inactive are the calls of the source. Calls come from the whole dose curve; as a rule, active = well fitted inhibition curve with a large enough effect; inconclusive = small, poorly fitted or top-dose-only effect, or effect the other way; inactive = flat fitted curve, though single readings scatter.

Sequences of proteins named here, by UniProt entry; tags and fusion partners are left off. Residues count along the entry.
UniProt P10636, 561-689 P618L limits assumed: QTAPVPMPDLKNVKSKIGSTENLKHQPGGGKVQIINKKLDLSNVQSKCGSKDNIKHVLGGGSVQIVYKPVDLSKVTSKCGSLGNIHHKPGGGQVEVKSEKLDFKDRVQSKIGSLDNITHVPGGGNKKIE

What follows are molecules tested against Microtubule-associated protein tau (Homo sapiens) (UniProt P10636) (assay: qHTS for Inhibitors of Tau Fibril Formation, Fluorescence Polarization). Details: K18 P301L tau heparin fibrillization, Alexa594 FP, 6 h; at 57.7 µM (top of the series).
From the text: NIH Molecular Libraries Probe Production Network [MLPCN]
NIH Chemical Genomics Center [NCGC]
Assay Provider: Carlo Ballatore, University of Pennsylvania
The microtubule-associated protein tau is an abundant protein in the axons of neurons that stabilizes microtubules. With its ability to modulate microtubule dynamics, tau contributes directly or indirectly, to key structural and regulatory cellular functions. Particularly important is the influence tau exerts on axonal transport, which allows signaling molecules, trophic factors and other essential cellular constituents to travel along the axons. Under pathological conditions, tau becomes sequestered into insoluble aggregates called neurofibrillary tangles. This phenomenon is believed to have pathological consequences by promoting axonal transport deficits that ultimately lead to synaptic dysfunction and neuronal loss. […]
For screening, 2 uL/well human K18 P301L (15 uM unlabeled and 0.24 uM Alexa 594-labeled tau final concentrations) in reagent buffer (100 mM sodium acetate pH 7) was dispensed into black solid 1536-well plates (Grenier) using a solenoid-based dispenser. […] After a 1 hr ambient incubation, the plates were read by an Envision (Perkin Elmer) to monitor Alexa 594 FP (555 nm excitation and 632 nm emission). […]
% is set by controls: 0 for no effect and ±100 for the full control effect.
Note: nearly all actives have a fitted effect of over 55% in size.

Structure (SMILES) | activity, negative = inhibition
CN(CCCl)CCCl | inactive: -8.95%
